Test results as given in ChEMBL document CHEMBL1125213 (J Med Chem, 1991).

The chains behind the UniProt entries cited, without tags or fusion partners.
UniProt P25099, whole entry: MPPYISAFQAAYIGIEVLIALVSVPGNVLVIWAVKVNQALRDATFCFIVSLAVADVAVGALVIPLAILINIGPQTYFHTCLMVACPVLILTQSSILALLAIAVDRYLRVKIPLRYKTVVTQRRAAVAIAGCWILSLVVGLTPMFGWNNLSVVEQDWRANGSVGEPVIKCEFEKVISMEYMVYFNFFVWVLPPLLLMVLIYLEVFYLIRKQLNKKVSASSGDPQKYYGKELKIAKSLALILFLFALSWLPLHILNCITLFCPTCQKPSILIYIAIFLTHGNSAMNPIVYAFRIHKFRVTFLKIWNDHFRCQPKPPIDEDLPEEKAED

Biological target: Adenosine receptor A1 (Rattus norvegicus, UniProt P25099)
Experiment: Binding affinity against adenosine A1 receptor in rat cortex by using [3H]- PIA as a radioligand
Format: tissue-based

Ki: 28 µM
SMILES: Nc1ncnc2c1ncn2C1CCCO1 (stereo unspecified)
